This is an account of results in PubChem BioAssay AID642 (Vanderbilt High Throughput Screening Facility, 2007).

Chains of the proteins cited; added tags and fusions are not shown.
UniProt P21728, whole entry: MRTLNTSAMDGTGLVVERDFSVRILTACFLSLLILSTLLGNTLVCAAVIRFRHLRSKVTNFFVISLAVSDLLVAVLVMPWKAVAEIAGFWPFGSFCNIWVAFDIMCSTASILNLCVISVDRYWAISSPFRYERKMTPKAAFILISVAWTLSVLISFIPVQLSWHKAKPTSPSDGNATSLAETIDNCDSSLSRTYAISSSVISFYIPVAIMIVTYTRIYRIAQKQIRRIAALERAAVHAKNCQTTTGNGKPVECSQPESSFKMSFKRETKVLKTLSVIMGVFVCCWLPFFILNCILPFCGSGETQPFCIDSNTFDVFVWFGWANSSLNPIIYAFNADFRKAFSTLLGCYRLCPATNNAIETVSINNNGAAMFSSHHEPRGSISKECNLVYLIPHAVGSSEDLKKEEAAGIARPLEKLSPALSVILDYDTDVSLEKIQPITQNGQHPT

Structures are written as SMILES. The entries are a selection whose mix differs from that of the whole data set. Activity calls are given as the source filed them.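 How the source made its calls: active means luminescence in either of two replicates above the same-plate mean plus 3 SD of the low-dose dopamine control; inactive means the rest.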

The target of this experiment is D(1A) dopamine receptor (Homo sapiens) (UniProt P21728). In words: D1 receptor positive allosteric modulators, retest, confirmation, cell-based, HEK293 D1, CRE-luciferase, duplicate (AID 642). The conditions noted are these: dopamine EC30 potentiation, at 10 µM, active compounds read high.
On to `CCOc1ncccc1C(=O)NCC1(N2CCOCC2)CCCCC1`, for which the luminescence was active: 20500.
